Data from US20260258397A1, “REAGENTS AND SYSTEMS FOR GENERATING BIOSENSORS” (priority 2023, published 2026).

Legend:
PYR1^DIAZI = target: T1, PYR1^DIAZI (Arabidopsis thaliana, UniProt O49686, A160V/E8G/F108Y/F159G/L87M/M158V/V81Y); test: cell-based
T1 construct: expressed in transfected cells; host or cells: S. cerevisiae (2µ plasmid)
T1 sequence (O49686 1-191 E8G/V81Y/L87M/F108Y/M158V/F159G/A160V): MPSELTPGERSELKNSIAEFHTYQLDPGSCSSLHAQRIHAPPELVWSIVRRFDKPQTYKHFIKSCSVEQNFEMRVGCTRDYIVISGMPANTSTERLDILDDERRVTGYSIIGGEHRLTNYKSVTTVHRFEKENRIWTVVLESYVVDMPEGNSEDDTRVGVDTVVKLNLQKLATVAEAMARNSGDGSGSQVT
T1 sequence (Q9CAJ0 178-511 partner): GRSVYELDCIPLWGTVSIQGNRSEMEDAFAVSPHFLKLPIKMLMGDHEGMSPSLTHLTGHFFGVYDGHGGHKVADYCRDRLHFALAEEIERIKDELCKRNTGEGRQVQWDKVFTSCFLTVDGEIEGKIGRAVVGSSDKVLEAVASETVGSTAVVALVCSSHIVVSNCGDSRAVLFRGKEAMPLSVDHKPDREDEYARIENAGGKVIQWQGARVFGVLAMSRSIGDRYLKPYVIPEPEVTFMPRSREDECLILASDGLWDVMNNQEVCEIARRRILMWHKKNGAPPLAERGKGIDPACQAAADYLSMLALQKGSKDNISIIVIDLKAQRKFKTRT
Source text: (§1) PYR1 variants were used to drive gene expression in an inducible genetic circuit by fusing a zinc finger DNA binding domain (Z4^32) to the N-terminus of PYR1, and the VP64 activation domain 33 to the N-terminus of ΔN-HAB1. The SV40 nuclear localization signal was also fused to the N-terminus of PYR1. A single 2u plasmid was used to express SV40-Z4DBD-PYR1 and VP64-HAB1, while the GFP expression cassette (Z44-CYCcore-GFP-CYC 1term) was integrated at the YPRCΔ15 site on chromosome XVI. GFP fluorescence induced by each circuit was measured 12 h after ligand addition to 1 mL cultures, 30° C. Fluorescence was measured by flow cytometry. […] The fluorescence intensity of each cell was measured using a BD Accuri C6 flow cytometer equipped with auto-loading. The forward scatter, side scatter, and GFP fluorescence (Ex/Em 488/533 nm) were recorded for a minimum of 10,000 events. […]
(§2) Three single transformants were picked from selection plates, inoculated in 2 mL of SD-Ura containing 2% glucose in 14 mL culture tubes. After 24 hours of growth at 30° C. in a shaker incubator (200 rpm), the OD600 of each sample was measured and cultures were back diluted to OD600=0.2 in fresh SD-Ura, the total volume of diluted culture was 9 mL. […] The fluorescence intensity of cells within each sample was measured using a BD Accuri C6 flow cytometer equipped with auto-loading from 96 well plates. […]

PYR1^PIRI = target: T2, PYR1^PIRI (Arabidopsis thaliana, UniProt O49686, A160T/E130G/F159T/K59R/N119S/S122Q/S92M/V174A); test: cell-based
T2 construct: expressed in transfected cells; host or cells: S. cerevisiae (2µ plasmid)
T2 sequence (O49686 1-191 K59R/S92M/N119S/S122Q/E130G/F159T/A160T/V174A): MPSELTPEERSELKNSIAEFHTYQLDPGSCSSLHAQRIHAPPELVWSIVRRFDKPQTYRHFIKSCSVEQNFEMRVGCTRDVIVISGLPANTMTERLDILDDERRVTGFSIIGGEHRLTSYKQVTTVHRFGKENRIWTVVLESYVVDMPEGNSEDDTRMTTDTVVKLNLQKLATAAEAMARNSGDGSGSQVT
T2 sequence (Q9CAJ0 178-511 partner): T1 sequence (Q9CAJ0 178-511 partner)
Source text: as §1, §2

## CCOP(=O)(OCC)Oc1ccc([N+](=O)[O-])cc1 [Paraoxon]
PYR1^DIAZI
  EC50: 1.24 µM
PYR1^PIRI
  EC50: 2.37 µM
